Test results published in US20260193317A1, “COMBINATION THERAPY WITH ACTRIIB RECEPTOR VARIANTS AND GLP-1 AGONISTS” (35PHARMA Inc., priority 2023, published 2026).

Tests used:
[1] = in mice; cited from earlier work
[2] = Pharmacokinetic profiles in CD-1 mice
[3] = Co-formulation study of ectodomain-based traps with incretin mimetics (monomer content by SEC / RP-HPLC, integrity, stability); format: physicochemical
GIP receptor (GIPR) = molecular target: T1, GIP receptor (GIPR) (Homo sapiens, UniProt P48546); assay: GIP receptor activation in CHO-K1 cells stably overexpressing GIPR; format: cell-based; settings: read-out: CBA Potency GIPR
T1 construct: host or cells: CHO-K1
T1 sequence (P48546 22-466): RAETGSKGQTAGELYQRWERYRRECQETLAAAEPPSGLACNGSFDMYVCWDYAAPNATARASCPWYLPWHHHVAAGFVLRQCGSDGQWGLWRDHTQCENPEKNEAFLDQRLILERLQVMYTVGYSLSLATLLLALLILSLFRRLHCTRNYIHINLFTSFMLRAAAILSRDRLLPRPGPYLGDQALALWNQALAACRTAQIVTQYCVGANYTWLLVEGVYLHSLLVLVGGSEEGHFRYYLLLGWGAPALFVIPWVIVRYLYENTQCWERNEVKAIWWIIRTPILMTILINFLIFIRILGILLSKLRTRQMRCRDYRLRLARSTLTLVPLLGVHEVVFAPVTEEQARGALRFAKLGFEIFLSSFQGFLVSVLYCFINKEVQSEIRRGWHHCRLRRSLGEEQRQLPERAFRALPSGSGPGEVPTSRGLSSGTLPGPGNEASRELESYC
Protocol: These reporter cells were purchased from Genscript (Piscataway, NJ, cat #M00451) and were maintained following the manufacturer's instructions. […] Once the cells reached 70-80% confluence, they were detached using trypsin. For all assays, cells were seeded in clear-bottom, opaque 96-well plates at a density of 10,000 cells per well in growth medium. Cells were left to attach for 10 minutes at room temperature prior to being transferred to a 37° C. incubator (5% CO2) overnight. The next day, cells were treated with incretin mimetics to assess intracellular cAMP accumulation, using the cAMP-GloTM Max Assay from Promega (Madison, WI, cat #V1682) following the manufacturer's instructions. Briefly, cells were starved in […] modified) medium (no additional supplements) for 2 hours at 37° C. incubator (5% CO2). […] Medium was removed from the culture plates, and cells were treated with the appropriate mixes of incretin mimetics. Treatment duration was for 30 min at 37° C. (5% CO2). All treatments were performed in technical duplicates and at least two independent experiments were conducted for each incretin mimetic. Cells were lyzed for 20 minutes at room temperature (150 rpm) using the kit's buffer. Following the kit's instructions, luciferin was then added for 10 minutes at room temperature (in the dark), following which luminescence was assessed. The data were plotted in GraphPad Prism, which was used to calculate IC50 values as a non-linear regression. […] These reporter cells were purchased from Genscript (Piscataway, NJ, cat #M00486). The same methodology described above was applied for these cells.

[4] = D 0, 20 mM NaPO4, 100 mM glycine, 75 mM histidine pH 7.5
[5] = D 14, 2-8 degrees, 20 mM NaPO4, 100 mM glycine, 75 mM histidine pH 7.5
[6] = D 14, Room temperature, 20 mM NaPO4, 100 mM glycine, 75 mM histidine pH 7.5
[7] = D 28, 2-8 degrees, 20 mM NaPO4, 100 mM glycine, 75 mM histidine pH 7.5
[8] = D 28, Room temperature, 20 mM NaPO4, 100 mM glycine, 75 mM histidine pH 7.5
[9] = D 56, 2-8 degrees, 20 mM NaPO4, 100 mM glycine, 75 mM histidine pH 7.5
[10] = D 56, Room temperature, 20 mM NaPO4, 100 mM glycine, 75 mM histidine pH 7.5

semaglutide
half-life [1]: ~ 7 h | detectable in circulation until ([2]; 2 mg/kg s.c.): 72 h | [C]max of semaglutide ([2]; 2 mg/kg s.c., alone or in combination with P1229): ~ 2,000 nmol/L | PK profile alone versus in the co-formulation ([2]; single s.c. injection, 7 days): comparable | Monomer content semaglutide ([3]; D 0): 99.8% | Monomer Content (%) semaglutide [3, 4]: 100% | Monomer content (semaglutide, %) Reverse phase [3, 4]: 99.8% | Monomer content (semaglutide, %) SEC [3, 4]: 100% | Monomer Content (%) semaglutide ([3]; D 0, semaglutide formulations, 20 mM NaPO4, glycine, sucrose, histidine pH 7.5): 100% | Monomer Content (%) semaglutide ([3]; D 7, 2-8° C., semaglutide formulations, 20 mM NaPO4, glycine, sucrose, histidine pH 7.5): 100% | Monomer Content (%) semaglutide ([3]; D 7, RT, semaglutide formulations, 20 mM NaPO4, glycine, sucrose, histidine pH 7.5): 100% | Monomer content semaglutide ([3]; D 7 after storage at 2-8° C.): 99.9% | Monomer content semaglutide ([3]; D 7 after storage at room temperature): 99.9% | Monomer content (semaglutide, %) Reverse phase [3, 5]: 99.8% | Monomer content (semaglutide, %) SEC [3, 5]: 100% | Monomer Content (%) semaglutide ([3]; D 14, 2-8° C., semaglutide formulations, 20 mM NaPO4, glycine, sucrose, histidine pH 7.5): 100% | Monomer Content (%) semaglutide ([3]; D 14, RT, semaglutide formulations, 20 mM NaPO4, glycine, sucrose, histidine pH 7.5): 100% | Monomer content (semaglutide, %) Reverse phase [3, 6]: 99.6% | Monomer content (semaglutide, %) SEC [3, 6]: 100% | Monomer content (semaglutide, %) Reverse phase [3, 7]: 99.8% | Monomer content (semaglutide, %) SEC [3, 7]: 100% | Monomer Content (%) semaglutide ([3]; D 28, 2-8° C., semaglutide formulations, 20 mM NaPO4, glycine, sucrose, histidine pH 7.5): 99.7% | Monomer Content (%) semaglutide ([3]; D 28, RT, semaglutide formulations, 20 mM NaPO4, glycine, sucrose, histidine pH 7.5): 96.5% | Monomer content (semaglutide, %) Reverse phase [3, 8]: 99.2% | Monomer content (semaglutide, %) SEC [3, 8]: 100% | Monomer content semaglutide ([3]; D 28, storage at 2-8° C., 10 mM NaPO4, 100 mM glycine, 75 mM sucrose pH 7.5): 100% | Monomer content semaglutide ([3]; D 28, storage at room temperature, 10 mM NaPO4, 100 mM glycine, 75 mM sucrose pH 7.5): 100% | Monomer content (semaglutide, %) Reverse phase [3, 9]: 99.8% | Monomer content (semaglutide, %) SEC [3, 9]: 100% | Monomer Content (%) semaglutide ([3]; D 56, 2-8° C., 20 mM NaPO4, 100 mM Glycine, 75 mM Histidine pH 7.5): 100% | Monomer Content (%) semaglutide ([3]; D 56, 2-8° C., semaglutide formulations, 20 mM NaPO4, glycine, sucrose, histidine pH 7.5): 100% | Monomer Content (%) semaglutide ([3]; D 56, RT, 20 mM NaPO4, 100 mM Glycine, 75 mM Histidine pH 7.5): 95.3% | Monomer Content (%) semaglutide ([3]; D 56, RT, semaglutide formulations, 20 mM NaPO4, glycine, sucrose, histidine pH 7.5): 98.3% | Monomer content (semaglutide, %) Reverse phase [3, 10]: 98.6% | Monomer content (semaglutide, %) SEC [3, 10]: 100%

tirzepatide
EC50 (GIP receptor (GIPR); D 7, 2-8° C.): 1.1 pM | EC50 (GIP receptor (GIPR); D 7, RT): 1.2 pM | EC50 (GIP receptor (GIPR); D 28, 2-8° C.): 1.6 pM | EC50 (GIP receptor (GIPR); D 28, RT): 1.4 pM | EC50 (GIP receptor (GIPR); D 56, 2-8° C.): 1.9 pM | EC50 (GIP receptor (GIPR); D 56, RT): 2 pM | Monomer Content (%) tirzepatide ([3]; D 0, same buffer (pH 7.5)): 100% | Monomer Content (%) tirzepatide ([3]; D 7, 2-8° C.): 100% | Monomer Content (%) tirzepatide ([3]; D 7, RT): 100% | Monomer Content (%) tirzepatide ([3]; D 14, 2-8° C.): 100% | Monomer Content (%) tirzepatide ([3]; D 14, RT): 100% | Monomer Content (%) tirzepatide ([3]; D 28, 2-8° C.): 100% | Monomer Content (%) tirzepatide ([3]; D 28, RT): 100% | Monomer Content (%) tirzepatide ([3]; D 56, 2-8° C.): 99.9% | Monomer Content (%) tirzepatide ([3]; D 56, RT): 99.9%

Read-outs that look alike come from different tables or passages of the source.
